# Literature values in patent publication US11390616B2 (BRISTOL-MYERS SQUIBB COMPANY, priority 2015, dated 2022).
# By UniProt entry, the sequences of proteins in these tests, tags left out. Where a name states a change or a piece, a line headed by the entry shows the natural chain unless it says otherwise.
# UniProt P35414: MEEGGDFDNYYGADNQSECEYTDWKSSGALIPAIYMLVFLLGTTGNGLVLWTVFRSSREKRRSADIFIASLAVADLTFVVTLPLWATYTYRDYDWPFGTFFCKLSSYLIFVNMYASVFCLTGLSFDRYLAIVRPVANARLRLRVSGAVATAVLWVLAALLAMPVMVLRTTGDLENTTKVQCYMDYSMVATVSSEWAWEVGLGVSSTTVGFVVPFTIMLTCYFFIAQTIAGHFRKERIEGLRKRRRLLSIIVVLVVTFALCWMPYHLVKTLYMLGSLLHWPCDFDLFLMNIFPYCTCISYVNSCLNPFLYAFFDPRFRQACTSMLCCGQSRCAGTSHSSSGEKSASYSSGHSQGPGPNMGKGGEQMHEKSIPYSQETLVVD
# Molecular target: APJ receptor (Homo sapiens, UniProt P35414)
# Conditions: reported; Pitkin et al. 2010; cited from earlier work
substance,measurement,value
Apelin,binding affinity,sub-nanomolar range
